Source: ChEMBL document CHEMBL5728910, “Compositions for treating neurodegenerative diseases” (2022)

The chains behind the UniProt entries cited, without tags or fusion partners.
UniProt Q60492, whole entry: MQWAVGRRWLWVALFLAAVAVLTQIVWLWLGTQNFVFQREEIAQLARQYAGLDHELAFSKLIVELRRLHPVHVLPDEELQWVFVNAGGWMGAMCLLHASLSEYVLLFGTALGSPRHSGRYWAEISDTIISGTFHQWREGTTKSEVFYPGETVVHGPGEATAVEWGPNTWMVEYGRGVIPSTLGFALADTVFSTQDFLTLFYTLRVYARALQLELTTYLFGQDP

Molecular target: Sigma non-opioid intracellular receptor 1 (Cavia porcellus, UniProt Q60492)
Assay: Competitive Radioligand Binding Assay 2: The affinity of test compounds at sigma-1 and sigma-2 receptors was also determined by displacement of different known labeled sigma-2 or sigma-1 ligands. Filtration assays were conducted according the previously published procedure (Xu, et al., 2005). Test compounds were dissolved in N,N-Dimethylformamide (DMF), dimethyl sulfoxide (DMSO) or ethanol and then diluted in 50 mM Tris-HCl pH 7.4 buffer containing 150 mM NaCl and 100 mM EDTA. Membrane homogenates were made from guinea pig brain for sigma-1 binding assay and rat liver for sigma-2 binding assay. Membrane homogenates were diluted with 50 mM Tris-HCl buffer, pH 8.0 and incubated at 25° C. in a total volume of 150 uL in 96 well plates with the radioligand and test compounds with concentrations ranging from 0.1 nM to 10 uM. After incubation was completed, the reactions were terminated by the addition of 150 uL of ice-cold wash buffer (10 mM Tris HCl, 150 mM NaCl, pH 7.4) using a 96 channel transfer pipette (Fisher Scientific, Pittsburgh, Pa.) and the samples harvested and filtered rapidly through 96 well fiber glass filter plate (Millipore, Billerica, Mass.) that had been presoaked with 100 uL of 50 mM Tris-HCl buffer. Each filter was washed four times with 200 uL of ice-cold wash buffer (10 mM Tris-HCl, 150 mM NaCl, pH 7.4). […]

## CC(C)=CC(CC(C)(C)c1ccc(C(F)(F)F)cc1)N1CCC(C)(C)CC1 (stereo unspecified)
  Ki: 4.1 nM
